Values joined by “and” are separate entries in the source; they are usually repeats but may differ in a detail not shown here. Equal values may be shown once.
Experiments:
[1] = biological target: sigma-1 receptor (S1R) (Cavia porcellus, UniProt Q60492); assay: Sigma-1 receptor competitive radioligand binding assay with [3H](+)-pentazocine in guinea pig liver membranes; conditions: separated enantiomers; for Ki: read-out: S1R Ki ± S.E.M., guinea pig liver membranes, [3H](+)-pentazocine; for Selectivity (S2R/S1R): KiS2R/KiS1R
[2] = biological target: sigma-2 receptor (S2R) (Rattus norvegicus, UniProt Q5U3Y7); assay: Sigma-2 receptor competitive radioligand binding assay with [3H]DTG in rat liver membranes, S1R masked with 100 nM (+)-pentazocine; conditions: read-out: S2R Ki ± S.E.M., separated enantiomers, 17 nM [3H]DTG, 100 nM (+)-pentazocine to mask S1R

Amino acid sequences for entries named in this document (tags omitted). A change or cut given only in a name is not applied to a line headed by its entry.
UniProt Q60492, whole entry: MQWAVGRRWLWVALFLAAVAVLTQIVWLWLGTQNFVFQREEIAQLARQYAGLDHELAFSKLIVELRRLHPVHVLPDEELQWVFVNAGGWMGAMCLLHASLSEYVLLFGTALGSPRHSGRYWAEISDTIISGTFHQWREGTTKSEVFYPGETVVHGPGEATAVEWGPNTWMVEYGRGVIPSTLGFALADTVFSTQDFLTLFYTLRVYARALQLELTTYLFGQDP
UniProt Q5U3Y7, whole entry: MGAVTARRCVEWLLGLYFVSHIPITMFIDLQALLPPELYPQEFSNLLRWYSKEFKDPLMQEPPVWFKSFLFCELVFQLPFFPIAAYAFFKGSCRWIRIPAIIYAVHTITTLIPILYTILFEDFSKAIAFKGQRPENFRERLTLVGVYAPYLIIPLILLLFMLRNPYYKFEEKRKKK

SMILES | Ki [1] [nM] | Selectivity (S2R/S1R) [1] | Ki [2] [nM]
COc1cc2c(cc1OC)[C@@H](CCNCc1ccccc1)NCC2 | 252 | – | 94
N[C@@H](CC(=O)NCc1cccc(C(F)(F)F)c1F)c1ccccc1 | 81 | 63 | 5110
COc1ccc(OC[C@@H](O)CN2CCc3ccccc3C2)cc1 | 132 | 3.5 | 463
COc1cc2c(cc1OC)[C@H](CCNCc1ccccc1)NCC2 | 11 | 15 and 15.4 | 169

The remaining lines, values ahead:

Ki [1] [nM] | Selectivity (S2R/S1R) [1] | Ki [2] [nM] | SMILES
58 | 3 | 176 | COc1ccc(OC[C@H](O)CN2CCc3ccccc3C2)cc1
699 | 1.3 | 920 | N[C@H](CC(=O)NCc1cccc(C(F)(F)F)c1F)c1ccccc1

Source: article PMC8347176, “Novel High Affinity Sigma-1 Receptor Ligands from Minimal Ensemble Docking-Based Virtual Screening” (International Journal of Molecular Sciences, 2021)
